# MC4R antag cAMP – MC4R antagonists of cAMP signaling, primary screen, cell-based, TR-FRET, antagonist arm of biased-ligand search; Melanocortin receptor 4 (Homo sapiens), P32245; MC4R-expressing cells, MTII-stimulated cAMP, LANCE TR-FRET; inhibition, % at 6.5 µM; 0.48% of 360,000 active;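 active = inhibition above its plate's cutoff, the mean of tested wells on that plate plus 3 SD, cut at about 29% in these data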;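 also: 0% = Melanotan II alone and 100% = Melanotan II plus saturating MCL0020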
#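 Material: human MC4R-expressing U2OS cells. Probe or stimulus: Melanotan II challenge. Dosing: 6.5 µM single dose. Times: 30-min compound, 1-h challenge, 1-h detection, room temperature. Technique: TR-FRET with Eu-cAMP and labeled anti-cAMP, 671 nm. Replication: singlicate.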
# MC4R barr agon – MC4R agonists recruiting beta-arrestin, primary screen, cell-based, luminescence, agonist arm of biased-ligand search. Melanocortin receptor 4 (Homo sapiens), P32245. 0.98% of 360,000 active. activation, % at 8.9 µM. U2OS MC4R beta-arrestin complementation; percent of melanotan II response, DMSO zero;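 active = activation above a per-plate cutoff, the mean activation of sample wells on that plate plus 3 SD, cut at about 8% in these data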
# ARFGAP1 inhibitor – inhibitors of rat ARFGAP1 GAP activity, primary screen, biochemical, fluorescence polarization, GDP tracer; ADP-ribosylation factor GTPase-activating protein 1 (Rattus norvegicus), Q62848; Arfgap1-stimulated ARF1 GTP hydrolysis, GDP FP detection; inhibition, % at 16.5 µM; 0.26% of 360,000 active; AID 651572, 2012;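 active = inhibition above a per-plate limit, mean inhibition of low control wells plus 3 SD, cut at about 25% in these data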;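 also: 0% = DMSO wells with enzyme and 100% = wells lacking Arfgap1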
#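 Repeats: one replicate per compound; assay system: rat Arfgap1 catalytic domain, aa 1-136; times: enzyme reaction 120 min at 25 °C after 20 min preincubation; detection: FP of antibody-bound GDP Alexa 633 tracer, ex 620/em 688 nm; benchmarks: high control wells lacking Arfgap1, low control full reaction with DMSO; reagent: human ARF1(Δ1-17)-GTP substrate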
# UUG fidelity – modulators of start codon recognition fidelity in yeast. S. cerevisiae UUG-firefly luciferase reporter, luminescence/redox ratio. activity score, % at 18.7 µM. 350,000 tested, 0.13% active;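 active = replicate mean at a twofold rise or more, about +100% in these data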;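 note: firefly luciferase made from a UUG start codon reports start codon fidelity; reporter light over untreated wells divided by growth signal over untreated wells; some hits fall short of that in this replicate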
# CendR NRP1 mod – modulators of CendR peptide binding to NRP-1, primary screen, biochemical, fluorescence polarization, uHTS; inhibition, % at 25 µM; AID 602438, 2012; 0.85% of 360,000 active; Neuropilin-1 (Homo sapiens), O14786; FAM-RPARPAR peptide binding to NRP-1;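 active = inhibition or corrected inhibition above about 18%, plus a signal ratio from 0.5 to 1.5, limit read from the data, passing the limit was not always enough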
# ASAP1 GAP inh – inhibitors of human ASAP1 ArfGAP activity, primary screen, biochemical, fluorescence polarization; ASAP1-stimulated ARF1 GTP hydrolysis, GDP FP detection; inhibition, % at 16.5 µM; 0.19% of 360,000 active; in the data active = inhibition above about 25%;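 also: 0% = vehicle with enzyme and substrate and 100% = no enzyme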
# * hit, by the source's call; · = no result given. In the library only some 2.3% were active in any assay of this set; here they are far more common.
[1] CCCCCOc1ccc(/C=c2\sc3nc(=O)c(-c4ccccc4)nn3c2=O)cc1OC
[2] O=c1nc2s/c(=C\c3ccc(-c4ccccc4[N+](=O)[O-])o3)c(=O)n2nc1-c1ccccc1
[3] CCOC(=O)Nc1ccc(OC(=O)Oc2ccc(NC(=O)OCC)cc2)cc1
[4] CCOC(=O)Nc1ccc(Oc2ccccc2)cc1
[5] C[C@@H]1CCCCO[C@H](CN(C)C(=O)Nc2ccc(C(F)(F)F)cc2)[C@H](C)CN([C@H](C)CO)C(=O)c2cc(NC(=O)Nc3cccc4ccccc34)ccc2O1
[6] COc1ccc(NC(=O)Nc2ccc3c(c2)[C@@H]2C[C@@H](CC(=O)NCC4CC4)O[C@H](CO)[C@@H]2O3)cc1
[7] CCC(=O)Nc1cc2c3c(c1)CCC(=O)N3CCC2
[8] CSCCC(NS(=O)(=O)c1ccc2c(c1)OCCO2)C(=O)N(C)Cc1ccc(C)cc1 (centres undefined)

By UniProt entry, the sequences of proteins in these tests, tags left out. Residues count along the entry.
Melanocortin receptor 4 (Homo sapiens), P32245, UniProt P32245, whole entry, looked up: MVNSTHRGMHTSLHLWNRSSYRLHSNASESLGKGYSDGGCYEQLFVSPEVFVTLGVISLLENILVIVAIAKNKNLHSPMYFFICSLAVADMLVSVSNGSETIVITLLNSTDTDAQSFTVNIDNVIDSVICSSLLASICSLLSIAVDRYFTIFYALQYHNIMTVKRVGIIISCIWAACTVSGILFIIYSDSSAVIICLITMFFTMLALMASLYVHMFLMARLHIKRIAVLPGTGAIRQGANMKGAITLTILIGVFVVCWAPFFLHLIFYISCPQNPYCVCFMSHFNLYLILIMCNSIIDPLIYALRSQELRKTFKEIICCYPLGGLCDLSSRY
ADP-ribosylation factor GTPase-activating protein 1 (Rattus norvegicus), Q62848, UniProt Q62848, whole entry, looked up: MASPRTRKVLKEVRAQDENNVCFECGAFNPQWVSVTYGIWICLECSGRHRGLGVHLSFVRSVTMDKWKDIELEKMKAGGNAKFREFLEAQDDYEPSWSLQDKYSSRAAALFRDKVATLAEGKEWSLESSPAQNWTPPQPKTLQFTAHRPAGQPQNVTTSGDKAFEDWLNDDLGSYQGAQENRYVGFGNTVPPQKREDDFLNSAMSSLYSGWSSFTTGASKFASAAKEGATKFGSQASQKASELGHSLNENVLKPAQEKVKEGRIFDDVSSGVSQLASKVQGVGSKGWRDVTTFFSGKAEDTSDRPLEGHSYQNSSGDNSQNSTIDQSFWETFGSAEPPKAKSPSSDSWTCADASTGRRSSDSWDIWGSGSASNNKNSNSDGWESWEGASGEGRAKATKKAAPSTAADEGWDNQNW
ADP-ribosylation factor GTPase-activating protein 1 (Rattus norvegicus), Q62848, UniProt Q62848, 1-136 limits assumed: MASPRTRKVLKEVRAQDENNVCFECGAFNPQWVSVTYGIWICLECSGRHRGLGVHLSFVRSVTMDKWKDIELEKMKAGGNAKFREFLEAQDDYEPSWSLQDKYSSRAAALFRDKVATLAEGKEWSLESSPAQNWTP
Neuropilin-1 (Homo sapiens), O14786, UniProt O14786, whole entry, looked up: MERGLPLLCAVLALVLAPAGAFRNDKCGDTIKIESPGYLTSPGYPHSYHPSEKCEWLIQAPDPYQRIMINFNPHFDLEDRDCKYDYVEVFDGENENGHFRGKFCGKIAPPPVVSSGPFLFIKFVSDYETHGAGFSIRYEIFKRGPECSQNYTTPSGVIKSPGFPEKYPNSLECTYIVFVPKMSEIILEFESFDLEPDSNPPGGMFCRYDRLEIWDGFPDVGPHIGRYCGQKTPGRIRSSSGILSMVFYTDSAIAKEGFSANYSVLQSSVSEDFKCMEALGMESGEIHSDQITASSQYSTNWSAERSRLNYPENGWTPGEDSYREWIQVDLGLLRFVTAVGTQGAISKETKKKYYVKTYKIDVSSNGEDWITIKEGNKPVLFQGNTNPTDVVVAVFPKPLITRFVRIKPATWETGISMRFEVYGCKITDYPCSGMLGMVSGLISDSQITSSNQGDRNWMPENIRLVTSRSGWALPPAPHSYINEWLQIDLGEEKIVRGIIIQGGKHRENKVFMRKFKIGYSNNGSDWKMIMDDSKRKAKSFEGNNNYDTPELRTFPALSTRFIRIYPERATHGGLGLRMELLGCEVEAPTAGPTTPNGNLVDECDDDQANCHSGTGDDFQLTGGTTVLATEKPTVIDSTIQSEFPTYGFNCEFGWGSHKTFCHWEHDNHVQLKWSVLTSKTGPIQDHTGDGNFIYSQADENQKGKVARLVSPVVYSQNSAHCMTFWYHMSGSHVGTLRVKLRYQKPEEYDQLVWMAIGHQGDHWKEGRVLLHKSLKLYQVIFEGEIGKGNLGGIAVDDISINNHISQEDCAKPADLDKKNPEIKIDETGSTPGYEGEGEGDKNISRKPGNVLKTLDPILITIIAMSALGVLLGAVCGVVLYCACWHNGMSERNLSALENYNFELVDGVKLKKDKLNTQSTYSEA

screen / no.,1,2,3,4,5,6,7,8
MC4R antag cAMP,2,-5,-6,-4,·,·,12,-1
MC4R barr agon,1,-1,9.5*,-1,·,·,-1,-1
ARFGAP1 inhibitor,0,-5,-4,7,·,·,-17,17
UUG fidelity,·,·,·,-5,-11,-6,-12,12
CendR NRP1 mod,-24,36*,4,-5,·,·,26*,37*
ASAP1 GAP inh,8,-13,-14,-12,·,·,3,9

[9] COc1ccc(NC(=O)N(C)C[C@@H]2Oc3ccc(NS(=O)(=O)c4cccs4)cc3CC(=O)N([C@H](C)CO)C[C@@H]2C)cc1
[10] COC(=O)CCC(C)C1CCC2C3CCC4CC(O)CCC4(C)C3CC(O)C12C (centres undefined)
[11] CC(C)NC(=O)Nc1ccc2c(c1)C(=O)N([C@H](C)CO)C[C@@H](C)[C@@H](CN(C)Cc1ccc(C(=O)O)cc1)OCCCC[C@H](C)O2
[12] Cn1nc(C(=O)Nc2ccccc2Cl)cc1C(=O)Nc1ccccc1Cl
[13] Cn1nc(C(=O)Nc2ccc(Br)cc2)cc1C(=O)Nc1ccc(Br)cc1
[14] COc1cc2nc(CN(CCC(C)C)Cc3nc4cc(OC)c(OC)cc4c(=O)[nH]3)[nH]c(=O)c2cc1OC
[15] CCNCc1nc2cc(OC)c(OC)cc2c(=O)[nH]1
[16] COC(=O)c1cc(C(=O)OC)n(Cc2ccc(Br)cc2)n1

screen / no.,9,10,11,12,13,14,15,16
MC4R antag cAMP,·,23,·,4,7,5,-5,-5
MC4R barr agon,·,9.6*,·,9.3*,1,0,2,-1
ARFGAP1 inhibitor,·,0,·,-2,5,3,9,-8
UUG fidelity,6,18,8,-15,3,-3,-6,·
CendR NRP1 mod,·,-4,·,7,-4,-1,28*,32*
ASAP1 GAP inh,·,-3,·,1,-2,6,7,0

# Part of the list above in a different format:
entry	mol	MC4R antag cAMP	MC4R barr agon	ARFGAP1 inhibitor	UUG fidelity	CendR NRP1 mod	ASAP1 GAP inh
11	CC(C)NC(=O)Nc1ccc2c(c1)C(=O)N([C@H](C)CO)C[C@@H](C)[C@@H](CN(C)Cc1ccc(C(=O)O)cc1)OCCCC[C@H](C)O2	·	·	·	8	·	·
12	Cn1nc(C(=O)Nc2ccccc2Cl)cc1C(=O)Nc1ccccc1Cl	4	9.3*	-2	-15	7	1
13	Cn1nc(C(=O)Nc2ccc(Br)cc2)cc1C(=O)Nc1ccc(Br)cc1	7	1	5	3	-4	-2
14	COc1cc2nc(CN(CCC(C)C)Cc3nc4cc(OC)c(OC)cc4c(=O)[nH]3)[nH]c(=O)c2cc1OC	5	0	3	-3	-1	6

# New compounds follow:
[17] O=C(NCc1cccs1)c1ccc(S(=O)(=O)N2CCOCC2)cc1
[18] O=C(NCc1ccc(Cl)cc1)c1ccc(S(=O)(=O)N2CCCCC2)cc1
[19] N#Cc1cccc(-c2ccc3c(c2)[C@H]2[C@H](CCN2S(=O)(=O)c2ccccc2)[C@@H](CO)N3)c1
[20] COc1cccc2sc(Nc3nc(-c4cc5ccccc5oc4=O)cs3)nc12
[21] Cc1ccc(S(=O)(=O)Nc2ccc3c(c2)C(=O)N([C@@H](C)CO)C[C@H](C)[C@@H](CN(C)Cc2ccncc2)OCCCC[C@@H](C)O3)cc1
[22] C[C@H](CO)N1C[C@H](C)[C@H](CN(C)Cc2ccncc2)Oc2ccc(NC(=O)NC3CCCCC3)cc2CC1=O
[23] CCN(CC)c1cc2c(c3c1ccn3C)C1CCC2O1 (centres undefined)
[24] CCCN(CC1CC1)c1cc2c(c3c1ccn3C)C1CCC2O1 (centres undefined)

screen / no.,17,18,19,20,21,22,23,24
MC4R antag cAMP,0,-2,·,2,·,·,·,·
MC4R barr agon,-1,9.4*,·,0,·,·,·,·
ARFGAP1 inhibitor,-9,-3,·,30*,·,·,5,-4
UUG fidelity,-18,-16,3,-9,2,-8,-5,0
CendR NRP1 mod,21*,0,·,-23,·,·,8,22*
ASAP1 GAP inh,16,8,·,23,·,·,4,-3

[25] CCc1nc(NCCC(C)C)c2nnn(Cc3ccccc3)c2n1
[26] Cc1nc(NCCC(C)C)c2nnn(Cc3ccccc3)c2n1
[27] C[C@H](CO)N1C[C@H](C)[C@@H](CN(C)C(=O)c2ccncc2)Oc2ncc(C#C[C@@H](C)O)cc2C1=O
[28] CCCCn1c(-c2cccs2)nc2oc3ccccc3c(=O)c2c1=O
[29] Cn1c(SCCS(=O)(=O)c2ccc(Cl)cc2)nnc1-c1ccccc1
[30] COc1cccc(NC(=O)N2[C@H](CO)[C@H](c3ccccc3)[C@@H]2CNC(C)C)c1
[31] CCc1nnc(NC(=O)CSc2nnc(CCc3nc4ccccc4[nH]3)n2C)s1
[32] Cc1c(OCc2ccccc2)c(=O)ccn1Cc1ccccc1

screen / no.,25,26,27,28,29,30,31,32
MC4R antag cAMP,5,18,·,-2,-4,·,3,4
MC4R barr agon,8.9*,2,·,0,-1,·,0,-2
ARFGAP1 inhibitor,-8,2,·,3,-8,·,9,-2
UUG fidelity,-20,-28,32,·,-9,-7,-18,·
CendR NRP1 mod,9,-2,·,20*,32*,·,19*,4
ASAP1 GAP inh,-7,-15,·,-13,-9,·,-3,-10

[33] O=c1ccn(Cc2ccccc2)c2ccccc12
[34] O=C(Cc1ccccc1)NCCc1cccc(Cl)c1
[35] O=C(CSc1nc2ccc(Cl)cc2[nH]1)NCCc1ccccc1
[36] C[C@@H]1CN([C@H](C)CO)C(=O)c2cc(C#Cc3ccccc3)cnc2O[C@@H]1CN(C)C(=O)C1CC1
[37] CC1OC(OCC2OC(Oc3c(-c4ccc(O)cc4)oc4cc(O)cc(O)c4c3=O)C(O)C(O)C2O)C(O)C(O)C1O (centres undefined)
[38] COC(=O)[C@]1(CO)N=C(c2ccc(OCCCO)cc2)O[C@@H]1c1ccccc1CN=[N+]=[N-]
[39] COc1ccc(/C=C/C(=O)NC(=S)Nc2ccccc2)cc1OC
[40] COc1ccc(/C=C/C(=O)NC(=S)NCCc2ccc(OC)c(OC)c2)cc1
[41] COc1ccc(/C=C/C(=O)Nc2ccccc2)cc1OC
[42] CCc1ccccc1NC(=O)c1ccc(CN2CCC(Cc3ccccc3)CC2)cc1
[43] COc1cccc(/C=N/NC(=O)c2cc(C34CC5CC(CC(C5)C3)C4)[nH]n2)c1

screen / no.,33,34,35,36,37,38,39,40,41,42,43
MC4R antag cAMP,5,-2,-2,·,-3,·,16,-9,5,1,14
MC4R barr agon,0,-2,2,·,-2,·,9.1*,17*,2,0,1
ARFGAP1 inhibitor,-4,16,17,·,-17,·,9,4,3,-2,6
UUG fidelity,-15,-23,·,1,3,-3,-16,-11,·,-1,·
CendR NRP1 mod,30*,26*,28*,·,22*,·,-7,-10,-16,32*,-2
ASAP1 GAP inh,-1,3,4,·,2,·,-6,6,6,-16,-2
